Test results from ChEMBL document CHEMBL1124172 (J Med Chem, 1988).
In brackets after ≈: the same amount, converted by molar mass. Several values for one entry are separate records, joined by “and”; a condition that tells them apart may be missing. Equal values may be shown once.

Tests used:
Mus musculus [1] = test: In vivo antitumor activity against P388 Lymphocytic Leukemia in mice at 25.5 mg/kg expressed as T/C value
A204 = test: In vitro cytotoxicity against human A204 Rhabdomyosarcoma cell line; format: functional, cell-based
How it was run: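 A204 human rhabdomyosarcoma soft-agarose colony assay. 10^4 trypsin/EDTA-dissociated cells in 0.3% agarose over a 0.5% agarose base, in DMEM with 10% FCS, at 37 °C and 5% CO2. Compound was applied in an upper medium layer on day 1 for 24 h, then washed out. Colonies >60 µm were counted after 7–9 days by tetrazolium stain and image analysis. Quadruplicates with vehicle controls, at least four concentrations up to 100 or 1000 µg/mL. IC50 from a monoexponential least-squares fit over at least three preparations, mean ± SE.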

Mus musculus [2] = test: In vivo antitumor activity against P388 Lymphocytic Leukemia in mice at 51 mg/kg expressed as T/C value
Mus musculus [3] = test: In vivo antitumor activity against P388 Lymphocytic Leukemia measured as Survivors on day 5 at 51 mg/kg; 6/6
Mus musculus [4] = test: In vivo antitumor activity against P388 Lymphocytic Leukemia in mice at 102 mg/kg expressed as T/C value
Mus musculus [5] = test: In vivo antitumor activity against P388 Lymphocytic Leukemia in mice at 12.75 mg/kg expressed as T/C value
Mus musculus [6] = test: In vivo antitumor activity against P388 Lymphocytic Leukemia measured as Survivors on day 5 at 25.5 mg/kg; 6/6
Mus musculus [7] = test: In vivo antitumor activity against P388 Lymphocytic Leukemia measured as Survivors on day 5 at 102 mg/kg; 5/5
Mus musculus [8] = test: In vivo antitumor activity against P388 Lymphocytic Leukemia measured as Survivors on day 5 at 12.75 mg/kg; 5/6
Mus musculus [9] = test: In vivo antitumor activity against P388 Lymphocytic Leukemia measured as Survivors on day 5 at 11.5 mg/kg; 6/6
Mus musculus [10] = test: In vivo antitumor activity against P388 Lymphocytic Leukemia in mice at 92 mg/kg expressed as T/C value
Mus musculus [11] = test: In vivo antitumor activity against P388 Lymphocytic Leukemia measured as Survivors on day 5 at 23 mg/kg; 6/6
Mus musculus [12] = test: In vivo antitumor activity against P388 Lymphocytic Leukemia measured as Survivors on day 5 at 46 mg/kg; 5/6
Mus musculus [13] = test: In vivo antitumor activity against P388 Lymphocytic Leukemia in mice at 23 mg/kg expressed as T/C value
Mus musculus [14] = test: In vivo antitumor activity against P388 Lymphocytic Leukemia in mice at 11.5 mg/kg expressed as T/C value
Mus musculus [15] = test: In vivo antitumor activity against P388 Lymphocytic Leukemia in mice at 46 mg/kg expressed as T/C value
Mus musculus [16] = test: In vivo antitumor activity against P388 Lymphocytic Leukemia measured as Survivors on day 5 at 92 mg/kg; 6/6
Mus musculus [17] = test: In vivo antitumor activity against P388 Lymphocytic Leukemia in mice at 9.5 mg/kg expressed as T/C value
Mus musculus [18] = test: In vivo antitumor activity against P388 Lymphocytic Leukemia measured as Survivors on day 5 at 19.5 mg/kg; 6/6
Mus musculus [19] = test: In vivo antitumor activity against P388 Lymphocytic Leukemia measured as Survivors on day 5 at 39 mg/kg; 5/6
Mus musculus [20] = test: In vivo antitumor activity against P388 Lymphocytic Leukemia in mice at 78 mg/kg expressed as T/C value
Mus musculus [21] = test: In vivo antitumor activity against P388 Lymphocytic Leukemia in mice at 39 mg/kg expressed as T/C value
Mus musculus [22] = test: In vivo antitumor activity against P388 Lymphocytic Leukemia measured as Survivors on day 5 at 9.75 mg/kg; 6/6
Mus musculus [23] = test: In vivo antitumor activity against P388 Lymphocytic Leukemia measured as Survivors on day 5 at 78 mg/kg; 6/6
Mus musculus [24] = test: In vivo antitumor activity against P388 Lymphocytic Leukemia in mice at 19.5 mg/kg expressed as T/C value
Mus musculus [25] = test: In vivo antitumor activity against P388 Lymphocytic Leukemia in mice at 200 mg/kg expressed as T/C value w.r.t. compound 6
Mus musculus [26] = test: In vivo antitumor activity against P388 Lymphocytic Leukemia in mice at 1600 mg/kg expressed as T/C value w.r.t. compound 6
Mus musculus [27] = test: Weight difference when tested in vivo for antitumor activity against P388 Lymphocytic Leukemia w.r.t. compound 6; weight difference expressed as (T-C)
Mus musculus [28] = test: In vivo antitumor activity against P388 Lymphocytic Leukemia in mice at 400 mg/kg expressed as T/C value w.r.t. compound 6
Mus musculus [29] = test: In vivo antitumor activity against P388 Lymphocytic Leukemia measured as Survivors on day 5 at 200 mg/kg, w.r.t. compound 6; 6/6
Mus musculus [30] = test: In vivo antitumor activity against P388 Lymphocytic Leukemia measured as Survivors on day 5 at 1600 mg/kg, w.r.t. compound 6; 6/6
Mus musculus [31] = test: In vivo antitumor activity against P388 Lymphocytic Leukemia measured as Survivors on day 5 at 400 mg/kg, w.r.t. compound 6; 6/6
Mus musculus [32] = test: In vivo antitumor activity against P388 Lymphocytic Leukemia in mice at 800 mg/kg expressed as T/C value w.r.t. compound 6
Mus musculus [33] = test: In vivo antitumor activity against P388 Lymphocytic Leukemia measured as Survivors on day 5 at 800 mg/kg, w.r.t. compound 6; 6/6

Work on `CC[C@@](O)(C(=O)O[C@H]1CC[N+]2([O-])CC=C(CO)[C@H]12)c1ccccc1` (stereo partly specified) yielded a T/C (Mus musculus [1]) of 100%, an IC50 (A204) of 32 µg/mL (≈ 96 µM) and a T/C (Mus musculus [2]) of 103%. The Survivors (Mus musculus [3]) was 6, the T/C (Mus musculus [4]) was 97% and the T/C (Mus musculus [5]) was 95%. For the same compound, the Survivors (Mus musculus [6]) was 6, the Survivors (Mus musculus [7]) was 5 and the Survivors (Mus musculus [8]) was 5.
For `CC[C@](O)(C(=O)OCC1=CC[N+]2([O-])CC[C@H](O)[C@@H]12)c1ccccc1` (stereo partly specified), the Survivors (Mus musculus [9]) was 6, the T/C (Mus musculus [10]) was 126% and the IC50 (A204) was 44 µg/mL (≈ 132 µM). For the same compound, the Survivors (Mus musculus [11]) was 6, the Survivors (Mus musculus [12]) was 5 and the T/C (Mus musculus [13]) was 106%. It also gave a T/C (Mus musculus [14]) of 106%, a T/C (Mus musculus [15]) of 117% and a Survivors (Mus musculus [16]) of 6.
For `CC[C@@](O)(C(=O)OCC1=CC[N+]2([O-])CC[C@H](O)[C@@H]12)c1ccccc1` (stereo partly specified), the IC50 (A204) was 15 µg/mL (≈ 45 µM), the T/C (Mus musculus [17]) was 106% and the Survivors (Mus musculus [18]) was 6. It also gave a Survivors (Mus musculus [19]) of 5, a T/C (Mus musculus [20]) of 103% and a T/C (Mus musculus [21]) of 100%. It also gave a Survivors (Mus musculus [22]) of 6, a Survivors (Mus musculus [23]) of 6 and a T/C (Mus musculus [24]) of 106%.
With `CCC(O)(C(=O)OCC1=CCN2CCC(O)C12)c1ccccc1` (stereo unspecified) the T/C (Mus musculus [25]) was 133%, the T/C (Mus musculus [26]) was 142% and the Weight difference (Mus musculus [27]) was -2.2 and -3.2 and -1.6. For the same compound, the T/C (Mus musculus [28]) was 151%, the Survivors (Mus musculus [29]) was 6 and the Survivors (Mus musculus [30]) was 6. It also gave a Survivors (Mus musculus [31]) of 6, a T/C (Mus musculus [32]) of 160% and a Survivors (Mus musculus [33]) of 6.
